Results taken from article PMC8861141 (Cell Discovery, 2022).

Molecular target: the molecule itself
Experiment: SEC-MALS; ND1 and D1D2 fragments of p97 with or without different nucleotides (Supplementary Fig. S9a, b)

B1: p97 D1D2 fragment (residues 210–806) (domain or fragment)
chain: not shown
notes: human p97, D1 and D2 domains with the C-terminal extension, residues 210-806; source: E. coli BL21 (DE3), purified
binding result: binds
